Reference: PubChem BioAssay AID651820 (National Center for Advancing Translational Sciences (NCATS), 2012)
The list shows a part of the results, in another mix than the full data. Some of these compounds have results that are not shown, active ones among them. Inconclusive results are not listed. The source made the active and inactive calls. Calls follow the shape of the dose curve; as a rule, active = well fitted inhibition curve with a large enough effect; inconclusive = small, poorly fitted or top-dose-only effect, or another doubt; inactive = no such curve, though single readings can be large or run the other way.

assay: qHTS Assay for Inhibitors of Hepatitis C Virus (HCV); conditions: Huh7.5.1 HCVcc-Cre (HCVcc is cell-culture hepatitis C virus) infection, luciferase reporter, 44 h; at 41.8 µM (top of the series)
From the text: Hepatitis C virus (HCV) infects about 200 million people in the world. Many infected people progress to chronic liver disease including cirrhosis with a risk of developing liver cancer. To date, there is no effective vaccine for hepatitis C. Current therapy based on interferon is only effective in about half of the patients and is associated with significant adverse effects. The fraction of people with HCV who can complete a successful treatment is estimated to be no more than 10 percent. Recent development of direct-acting antivirals against HCV, such as protease and polymerase inhibitors, is promising but still requires combination with peginterferon and ribavirin for maximal efficacy. In addition, these agents are associated with high rate of resistance and many have significant side effects. Due to the lack of a culture system for infectious HCV, the search for new HCV drugs has been greatly hampered. […]
The assay will start with plating 1,000 cells/well in 3 µL volume and culture for 4 h. […] A volume of 4.5 µL luciferase substrates will be added to each well and the plates will be incubated at room temperature for 15 min. and then read for 15 sec. for the luciferase activity
% is scaled to controls: 0 for no effect and ±100 for the full control effect.

| Structure (SMILES) | activity change, negative = inhibition |
| --- | --- |
| C=CCN1CCN(CCOC(=O)C(O)(c2ccccc2)c2ccccc2)CC1 | inactive: 11.9% |
| CC(C)N1C(=O)CC2(CCN(CCOC(=O)C(O)(c3ccccc3)c3ccccc3)CC2)C1=O | inactive: 12% |
